Among the data in patent EP1016405A2, “Arylating medicaments” (Radopath Pharmaceuticals International Limited, priority 1993, dated 1994) are T/C%, CC50 and CD50 values, retold here.

“And” between values parts separate entries of the source, which are not always exact repeats. Equal entries are not always repeated. Where two headings read alike, the source gives them in different places. This is a selection: effects in other tests are not listed, and their absence says nothing.

Data set [1] concerns MAC15A (murine adenocarcinoma colon). Nature of the data set: Anti-tumour activity against MAC15A ascites tumour, survival T/C%. The settings on record: median survival, test vs solvent control; 100 mg kg^-1 ip per day; schedule days 1,2,3. It counts as in vivo, mice.
The next data set has as its system uninfected H9 cells. The settings on record: read-out: CC50 (Toxicity), Table 11.2, section Against chronically infected cells, unit inferred.
A further data set relates to uninfected cells. Put plainly: Toxicity Assay, 14C protein hydrolysate uptake, 72 hours. The settings on record: Table 10; 50% inhibition of 14C protein hydrolysate uptake.

A word on the CC50: it is the concentration that lowers cell viability or growth by half. As for `O=[N+]([O-])c1cc([N+](=O)[O-])c(Cl)c([N+](=O)[O-])c1`, in data set [1], the T/C% stood at 113%. The CC50 was 9.5 µM with uninfected H9 cells (Average); 7 µM and 12 µM in the data set on uninfected H9 cells (single assays).

With `O=[N+]([O-])c1cc([N+](=O)[O-])c(O)c([N+](=O)[O-])c1`, the T/C% in data set [1] is given as 300%. In addition, the CD50 in the data set on uninfected cells is 95µm.
